Test results reported in article PMC12722636, “Structural Pharmacology of Bufotenine Derivatives in Activating the 5-HT1A Receptor for Therapeutic Potential in Depression and Anxiety” (Research, 2025).

By UniProt entry, the sequences of proteins in these tests, tags left out.
UniProt P08908, whole entry: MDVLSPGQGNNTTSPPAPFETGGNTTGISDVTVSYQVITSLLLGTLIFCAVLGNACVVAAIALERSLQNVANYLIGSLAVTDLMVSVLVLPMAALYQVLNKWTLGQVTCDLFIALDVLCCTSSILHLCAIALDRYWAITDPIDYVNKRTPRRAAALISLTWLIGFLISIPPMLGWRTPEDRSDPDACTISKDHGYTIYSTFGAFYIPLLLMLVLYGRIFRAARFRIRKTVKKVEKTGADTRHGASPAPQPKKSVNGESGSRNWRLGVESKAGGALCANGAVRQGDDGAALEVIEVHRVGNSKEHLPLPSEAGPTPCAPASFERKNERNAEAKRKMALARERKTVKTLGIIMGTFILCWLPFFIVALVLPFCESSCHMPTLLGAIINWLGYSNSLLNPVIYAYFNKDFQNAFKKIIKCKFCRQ

Biological target: 5-HT1A receptor (Homo sapiens, UniProt P08908)
Test: GloSensor cAMP assay, 5-HT1A Gi signaling in HEK 293T cells
Format: cell-based

Work on COc1ccc2[nH]cc(CCN(C)C)c2c1 [Compound 5-MeO-DMT, 5-methoxy-N,N-dimethyltryptamine] yielded a pEC50 of 6.30.

pEC50: −log10 of the molar value.
